Test results taken from PubChem BioAssay AID434982 (The Scripps Research Institute Molecular Screening Center, 2010).
The list shows a part of the results, in another mix than the full data. Activity calls are given as the source filed them. Cut-off read from the data, not from the text of the source: active = activation above about 2.2%; inactive = the rest.

Assay: activates NOTCH signaling in reporter cells (AID 434982)
Conditions: NOTCH signaling luciferase reporter cells, luminescence; at 2.5 µM; stronger effect = higher value

Structure (SMILES) | activation
O=[N+]([O-])C1([N+](=O)[O-])COCOC1 | inactive: -0.63%
